Drawing on patent US9133187B2, “Serine/threonine kinase inhibitors” (ARRAY BIOPHARMA INC., priority 2011, dated 2015), this text covers IC50 for one molecule.

Amino acid sequences for entries named in this document (tags omitted). Residues count along the entry.
UniProt P28482, 8-360: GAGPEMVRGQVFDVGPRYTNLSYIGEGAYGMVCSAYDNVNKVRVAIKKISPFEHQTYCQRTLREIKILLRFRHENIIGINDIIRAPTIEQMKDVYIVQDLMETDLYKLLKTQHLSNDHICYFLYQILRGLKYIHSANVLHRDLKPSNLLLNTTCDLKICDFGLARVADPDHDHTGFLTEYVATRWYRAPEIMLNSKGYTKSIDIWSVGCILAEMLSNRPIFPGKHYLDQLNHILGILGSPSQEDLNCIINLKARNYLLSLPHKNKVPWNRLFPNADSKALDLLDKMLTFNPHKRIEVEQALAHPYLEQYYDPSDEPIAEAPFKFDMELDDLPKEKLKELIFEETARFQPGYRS

For this experiment, the target named is human ERK-2 (Mitogen Activated Kinase 1) (Homo sapiens (Human), UniProt P28482). In words: ERK-2 Enzymatic Assay. The format is biochemical. The note with it: 5 nM ERK-2, 25 μM ATP, Omnia peptide S/T17; read-out: ERK Inhibition IC50. The method, then:
Compounds were tested in an enzymatic assay using human ERK-2 (Mitogen Activated Kinase 1), recombinantly expressed as an n-terminal 6-His fusion protein in E. coli and corresponding to aa 8-360. The substrate used was the fluorescent Omnia peptide S/T17 (Invitrogen of Carlsbad, Calif.; Cat. KNZ1171C). Test compounds were diluted in DMSO in 3-fold serial dilutions at 100× final concentrations. […] The assay was run at ambient temperature in a white 384-well polypropylene plate (Nunc, Inc of Naperville, Ill.; Cat. 267462) collecting data every 50 seconds for approximately 30 minutes on an Envision plate reader (PerkinElmer, Inc. of Waltham, Mass.); Excitation 340 nm/Emission 495 nm. The data collected from each well was fit to a straight line and the resulting rates were used to calculate percent of control. Percent of control was plotted against compound concentration and IC50 values were determined using a four-parameter fit.

As to `O=C(N[C@H](CO)c1ccc(F)c(Cl)c1)N1CCc2cnc(N[C@H](CO)Cc3ccccc3)nc2C1` [II-17, 2-((S)-1-Hydroxymethyl-2-phenyl-ethylamino)-5,8-dihydro-6H-pyrido[3,4-d]pyrimidine-7-carboxylic acid [(S)-1-(3-chloro-4-fluoro-phenyl)-2-hydroxy-ethyl]-amide], the IC50 stood at 4.1 nM.

The IC50 is the concentration needed to halve the response being measured.
